Reference: ChEMBL document CHEMBL1131916, “Novel series of O-substituted 8-quinolines and 4-benzothiazoles as potent antagonists of the bradykinin B2 receptors” (Bioorg Med Chem Lett, 1999)

Tested on: B2 bradykinin receptor, Oryctolagus cuniculus
Assay: % Inhibition of BK-induced (4x10E-8M) contraction of rabbit jugular vein (RJV) at 10E-5 M concentration

| inhibition [%] | Compound |
| --- | --- |
| 80 | Cc1ccc2cccc(OCc3c(Cl)ccc(N(C)C(=O)CNC(=O)NCCCC(=O)O)c3C#N)c2n1 |
| 72 | Cc1ccc2cccc(OCc3c(Cl)ccc(N(C)C(=O)CNC(=O)NCCCCN)c3C#N)c2n1 |
| 75 | Cc1nc2c(OCc3c(Cl)ccc(N(C)C(=O)CNC(=O)OCc4ccccc4)c3Cl)cccc2s1 |
| 66 | CCNC(=O)NCC(=O)N(C)c1ccc(Cl)c(COc2cccc3ccc(C)nc23)c1C#N |
